Test [1] has as its target E525K M2β 15HPZ.GFP (UniProt P12883).
For test [2], the target named is E525K M2β S1 (human) (UniProt P12883).
In test [3] the target is WT M2β S1 (human beta-cardiac myosin subfragment 1) (human) (UniProt P12883).
The target of test [4] is WT M2β 15HPZ.GFP (human beta-cardiac heavy meromyosin with 15 heptads of S2, a leucine zipper and a C-terminal GFP tag) (UniProt P12883).

On to “actin (rabbit skeletal muscle) (from UniProt P68135 1-377) (natural protein)”, for which the K ATPase: actin concentration at half-maximal actin-activated ATPase (NADH coupled assay, 0.1 µM M2β, 5-60 µM actin, MOPS 20 buffer, 25°C) in test [1] came out at 53.3 µM; in test [2] it was 1.8 µM; in test [3] it was 52.2 µM; in test [4], 99.9 µM. In addition, the Percent stuck filaments in the in vitro motility assay (myosin on nitrocellulose, Alexa-555 phalloidin actin) is 34.8% in test [1] and 27.8% in test [4].

For the origin of these results see PMC9691020.
